The record followed here is ChEMBL document CHEMBL3826898, “Oxa-Pictet-Spengler reaction as key step in the synthesis of novel σ receptor ligands with 2-benzopyran structure” (Bioorg Med Chem, 2016).

The experiment is described as follows: Displacement of [3H]di-o-tolylgluanidine from sigma 2 receptor in rat liver membranes at 1 uM after 2 hrs by scintillation counting. The conditions noted are these: Membrane. (In general: Displacement assays read how much labelled ligand stays bound in the presence of the test substance.)

As a reminder, the inhibition is the percentage by which the read-out fell short of the control. A low value points to a weak effect.

Turning to `COC(=O)C[C@@H]1Cc2ccccc2[C@H](CCN2CCCCC2)O1` (racemic), the inhibition came to 0%.
